From paper PMC5062937, “Aadh2p: an Arxula adeninivorans alcohol dehydrogenase involved in the first step of the 1-butanol degradation pathway” (Microbial Cell Factories, 2016)

System: CCO
Test: purified protein
Conditions: oxidation, 1 mM NAD+, 50 mM Tris-HCl pH 9.0, 30 °C

Substance: 6h-Aadh2p (Blastobotrys adeninivorans)
- Km: 14.2 mM
- kcat: 1420 s⁻¹
- kcat/Km: 99900 M⁻¹ s⁻¹
